Biological target: 5-hydroxytryptamine receptor 2A (Homo sapiens) (UniProt P28223)
Settings: CHO-K1; 50 uM

Amino acid sequences for entries named in this document (tags omitted).
UniProt P28223, whole entry: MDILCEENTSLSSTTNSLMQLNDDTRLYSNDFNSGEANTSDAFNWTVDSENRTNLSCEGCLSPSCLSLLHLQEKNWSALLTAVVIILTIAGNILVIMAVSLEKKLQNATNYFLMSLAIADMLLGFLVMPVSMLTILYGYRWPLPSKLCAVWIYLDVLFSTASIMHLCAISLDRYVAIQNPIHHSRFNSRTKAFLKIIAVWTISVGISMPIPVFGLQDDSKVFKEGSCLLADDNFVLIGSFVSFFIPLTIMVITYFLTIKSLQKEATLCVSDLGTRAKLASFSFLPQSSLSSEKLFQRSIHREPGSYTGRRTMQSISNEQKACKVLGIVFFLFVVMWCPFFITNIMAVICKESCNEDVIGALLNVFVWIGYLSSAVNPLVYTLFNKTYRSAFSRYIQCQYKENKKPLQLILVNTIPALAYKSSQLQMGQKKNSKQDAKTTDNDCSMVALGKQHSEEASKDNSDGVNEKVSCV

Q: Which inhibition does the source give for `CNC(=O)c1cc(Oc2ccc(NC(=O)Nc3ccc(Cl)c(C(F)(F)F)c3)cc2)ccn1` [SORAFENIB] here?
A: 93.3%

Reference: ChEMBL document CHEMBL2163296 (J Med Chem, 2012)
